# Binding of CDR-mutated scFvs to a peptide of the spike HR2 region

Target: peptide PDVDLGDISGINAS, taken from heptad repeat 2 (HR2) of SARS-CoV-2 spike.

Ab-95 is the parent antibody, in scFv form: VH, then a 15-residue (Gly4Ser)3 linker, then VL. The heavy chain is unchanged in all variants.
VH: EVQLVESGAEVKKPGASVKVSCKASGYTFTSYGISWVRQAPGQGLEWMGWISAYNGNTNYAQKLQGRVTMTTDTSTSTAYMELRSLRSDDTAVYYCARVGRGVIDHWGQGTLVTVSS
VL: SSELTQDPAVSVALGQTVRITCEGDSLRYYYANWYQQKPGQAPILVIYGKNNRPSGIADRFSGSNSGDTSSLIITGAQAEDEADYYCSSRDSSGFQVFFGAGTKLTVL

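The starting antibody came from a phage panning campaign against this peptide. AAYL52 was designed without a model: most single CDR substitutions and a random sample of double and triple ones. The assay is AlphaSeq: two haploid yeast populations carry antibody and antigen on their surface. Binding brings cells together so that they mate, and sequencing counts the barcode pairs among the diploids. The ratio of observed to expected reads was calibrated, replicate by replicate, on BCL2-family standards whose Kd was known from biolayer interferometry. Each pool was mated in three replicate cultures.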

The parent's light chain CDRs are EGDSLRYYYAN, GKNNRPS, SSRDSSGFQVF; each variant's own CDRs replace them letter for letter.
Scale: log10 of Kd in nM, estimated from mating counts; low values are strong binders.
Replicates are averaged; those with no signal do not enter the mean.
"nd" marks a missing value. The strain was present, yet no cells mated with the target were sequenced in any replicate, which points to weak or no binding.
Parent in this assay: reference entry 2.31, copy in this library 2.25.
Three control strains display no target. For library AAYL52, 28% of the pairings with them gave a signal, with a median of 3.91 and one signal in twenty below 2.90, so weak values seen in few replicates may be background. The control count says in how many pairings with the empty strains this scFv gave a signal.

CDR-L1 | CDR-L2 | CDR-L3 | mean log10 Kd (nM) | detected | empty controls
EGVSLRYYYAN | GKNNRVS | SSHDSSGFQVF | 2.61 | 3/3 | 1/9
EGDSLRYYYAN | GCNNTPS | SSRDSSFFQVF | 4.07 | 3/3 | 7/9
EGDTLRYLYAN | WKNNRPS | SSRDSSGFQVF | nd | 0/3 | 0/9
EGDSLRYYYAY | GKNNRQS | SSRDSCGFQVF | nd | 0/3 | 1/9
EGKSLRYYYAN | GQNNRPS | SSRMSSGFQVF | 2.71 | 3/3 | 2/9
EGDSLRYYYAN | GKNNRPS | SSRDNHVFQVF | 3.77 | 2/3 | 4/9
VGDSLRYYYAN | YKNNRPS | SSRDSSGFQRF | nd | 0/3 | 0/9
EGDSLWYYYAN | GKNNLPS | SSRDSSGFQCF | 4.02 | 3/3 | 5/9
EGDHLRYYYAN | GKNNRDS | SSRDSSGLQVF | 3.62 | 1/3 | 2/9
EGKSLRYYYAN | GKNNRPS | SSRPSSMFQVF | 1.89 | 3/3 | 3/9
EGDSLRYYNAN | GKNNRPS | SSRDLSGFQVM | 3.43 | 3/3 | 1/9
EGDFLRYYYAN | GKNNRPS | SFRDSSVFQVF | 4.76 | 2/3 | 1/9
EGQSLRYYYEN | GKNNEPS | SSRDSSGFQVF | 3.40 | 3/3 | 2/9
EGDTLRYYYAN | GKNNRPS | SSRDSSGFQGV | 2.39 | 2/3 | 3/9
EGDSLRYYYAN | GKNNRPS | SSMDTSGAQVF | 3.26 | 3/3 | 3/9
EGDSLRMYYAN | GKNNRPS | SSRDRSGIQVF | 4.20 | 2/3 | 3/9
EQDSLRYYYAD | GKNNRPS | SSRDSRGFQVF | nd | 0/3 | 5/9
EGDSLRYYYAN | GKNNRPT | SSRDMSGFAVF | 2.59 | 3/3 | 4/9
EGDSLRCYYAN | GKNNLPS | SSDDSSGFQVF | nd | 0/3 | 1/9
EGDSLRYAHAN | GKNNRPS | SSRDSSGFRVF | 1.24 | 3/3 | 4/9
EGDSLRYYYAN | GKMNRPS | SSRDRYGFQVF | 3.64 | 1/3 | 4/9
EEDSLRYYYAN | GKNNRCS | SSRDSSGFFVF | 3.25 | 1/3 | 0/9
EGDSLRYYTAN | GKNNRPS | SSRDSSGNLVF | 2.62 | 3/3 | 5/9
EGDSLRTYYAN | GKNNRGS | SSPDSSGFQVF | 2.71 | 2/3 | 1/9
EGDSLRYYYAN | GKQNRPS | SLRDSSGFEVF | 3.03 | 3/3 | 4/9
EGDSLRYYYAN | GKNFRPS | SSRVSSGFQVA | 2.93 | 2/3 | 4/9
EGDSFRYYYAN | GKNNRPS | RIRDSSGFQVF | 2.97 | 3/3 | 1/9
ECDSLRYYYAN | GKNNRPS | HSRDSSGFQSF | nd | 0/3 | 2/9
ENDQLRYYYAN | GKNNRPS | SSRDSSGFQVW | nd | 0/3 | 0/9
EGDSCHYYYAN | GKNNRPS | SSRDSSGFQTF | nd | 0/3 | 0/9
YGTSLRYYYAN | GKNNRPS | SSRFSSGFQVF | 2.34 | 3/3 | 2/9
EGDSLRYYYAN | GKENRPS | SSRDSSPFQTF | 4.12 | 1/3 | 1/9
EGDMLRYWYAN | GKNNRPS | SSRDSSGSQVF | 2.45 | 3/3 | 4/9
EGDSLRYYYAN | GKNNRPS | SHRDSSGGFVF | 3.40 | 2/3 | 1/9
EGDFLRTYKAN | GKNNRPS | SSRDSSGFQVF | 2.25 | 3/3 | 5/9
EGGSLRYYYAN | GKNNRPA | PSRDSSGFQVF | 4.07 | 1/3 | 1/9
EGDSPRYYYAN | GKNMRPS | SSRDCSGFQVF | nd | 0/3 | 4/9
EGDSLRIYYAN | GKNTRPS | SMRDSSGFQVF | nd | 0/3 | 3/9
EGDSLRYYPAN | GKNNRPC | SSRDSAGFQVF | 1.80 | 3/3 | 5/9
EGDSLRYYYLN | GKNNWPS | SSRDFSGFQVF | 4.44 | 2/3 | 2/9
EGDSLRYYYAN | GKNNRPS | SSHDSSTFQDF | 3.85 | 3/3 | 5/9
EGDSMRYYYAN | GKFQRPS | SSRDSSGFQVF | 4.51 | 1/3 | 3/9
EGDWLRYYYAW | GKNNRPS | SSQDSSGFQVF | 4.57 | 2/3 | 1/9
EGDSLRYKYAN | GKNNRPS | SERDSSGFQVQ | 1.94 | 3/3 | 1/9
LGDALRYYYAN | GKNNRPS | SSRDSSGFQVF | 3.28 | 3/3 | 1/9
EGDSLNYYYAN | GKNNRPS | CVRDSSGFQVF | 2.01 | 3/3 | 1/9
EGDSLRHYYAN | GVNNRPS | SSVDSSGFQVF | 2.48 | 3/3 | 3/9
EGDILRYYYAN | GKNNRGS | SSRDSSGKQVF | 3.89 | 2/3 | 1/9
EGDSLCYYYAQ | GKNRRPS | SSRDSSGFQVF | nd | 0/3 | 1/9
EGDTLRYYYAI | GKNNRPS | SSRDSSTFQVF | 4.47 | 2/3 | 1/9
PGDSQRYYYAN | GKNNRPY | SSRDSSGFQVF | 2.62 | 3/3 | 4/9
EGDSLRYYYAN | GKSNRPS | SSRDSLGFQVF | 3.24 | 3/3 | 7/9
EFDGLRYYYAN | QKNNRPS | SSRDSSGFQVF | 3.95 | 1/3 | 1/9
EGDSLKYYYAN | GKNNRPS | SSRDSCGFQVF | 4.58 | 1/3 | 3/9
EGDSLRYYYAN | GKNDRPS | TSRDSSYFQVF | nd | 0/3 | 1/9
EGDSLRYYYAN | GLNNRPS | PSRDGSGFQVF | nd | 0/3 | 0/9
EHDSLRYYYAN | GKNYRPL | SSRDSSGFQVF | 3.11 | 3/3 | 4/9
EIKSLRYYYAN | GLNNRPS | SSRDSSGFQVF | 5.68 | 1/3 | 4/9
EFDSLRYYYAN | GKNNRPS | SSVDSSGFQVF | 3.71 | 3/3 | 5/9
EGDSLRYAYAN | GKNNRPS | SSRDSSRFQYF | 1.32 | 3/3 | 4/9
EGDSLRFYYAN | GKNERPS | SSRMSSGFQVF | 5.68 | 2/3 | 4/9
EGDSLRYYYAN | GKNGRPS | SSRDSDGGQVF | 2.87 | 3/3 | 2/9
EGDSLRYYYAN | SKRNRPS | SSRDSNGFQVF | nd | 0/3 | 0/9
EGDSLRYYYAI | GKNNRPS | SSCDSSGFQVF | 3.82 | 1/3 | 0/9
EGDSLRYYYAN | KKNNRPS | SSRTASGFQVF | 5.40 | 2/3 | 1/9

For reference, 10 entries of the list once more:

| CDR-L1 | CDR-L2 | CDR-L3 | mean log10 Kd (nM) | detected | empty controls |
|---|---|---|---|---|---|
| EGDSLRMYYAN | GKNNRPS | SSRDRSGIQVF | 4.20 | 2/3 | 3/9 |
| EGDSLRYYYAN | GKNNRPS | SHRDSSGGFVF | 3.40 | 2/3 | 1/9 |
| EGDSLKYYYAN | GKNNRPS | SSRDSCGFQVF | 4.58 | 1/3 | 3/9 |
| ENDQLRYYYAN | GKNNRPS | SSRDSSGFQVW | nd | 0/3 | 0/9 |
| EGDSLRYYYAN | GCNNTPS | SSRDSSFFQVF | 4.07 | 3/3 | 7/9 |
| EGDSLCYYYAQ | GKNRRPS | SSRDSSGFQVF | nd | 0/3 | 1/9 |
| EGDSLRTYYAN | GKNNRGS | SSPDSSGFQVF | 2.71 | 2/3 | 1/9 |
| EGDWLRYYYAW | GKNNRPS | SSQDSSGFQVF | 4.57 | 2/3 | 1/9 |
| EGDSLRYYYAN | GLNNRPS | PSRDGSGFQVF | nd | 0/3 | 0/9 |
| EFDGLRYYYAN | QKNNRPS | SSRDSSGFQVF | 3.95 | 1/3 | 1/9 |

From the AlphaSeq antibody data of Engelhart et al. 2022 (doi:10.1038/s41597-022-01779-4), copy in the FLAb collection.